Laboratory results from US8653063B2, “N-substituted saturated heterocyclic sulfone compounds with CB2 receptor agonistic activity” (dated 2014).

Sequences of proteins named here, by UniProt entry; tags and fusion partners are left off. A change or cut given only in a name is not applied to a line headed by its entry.
UniProt Q12809: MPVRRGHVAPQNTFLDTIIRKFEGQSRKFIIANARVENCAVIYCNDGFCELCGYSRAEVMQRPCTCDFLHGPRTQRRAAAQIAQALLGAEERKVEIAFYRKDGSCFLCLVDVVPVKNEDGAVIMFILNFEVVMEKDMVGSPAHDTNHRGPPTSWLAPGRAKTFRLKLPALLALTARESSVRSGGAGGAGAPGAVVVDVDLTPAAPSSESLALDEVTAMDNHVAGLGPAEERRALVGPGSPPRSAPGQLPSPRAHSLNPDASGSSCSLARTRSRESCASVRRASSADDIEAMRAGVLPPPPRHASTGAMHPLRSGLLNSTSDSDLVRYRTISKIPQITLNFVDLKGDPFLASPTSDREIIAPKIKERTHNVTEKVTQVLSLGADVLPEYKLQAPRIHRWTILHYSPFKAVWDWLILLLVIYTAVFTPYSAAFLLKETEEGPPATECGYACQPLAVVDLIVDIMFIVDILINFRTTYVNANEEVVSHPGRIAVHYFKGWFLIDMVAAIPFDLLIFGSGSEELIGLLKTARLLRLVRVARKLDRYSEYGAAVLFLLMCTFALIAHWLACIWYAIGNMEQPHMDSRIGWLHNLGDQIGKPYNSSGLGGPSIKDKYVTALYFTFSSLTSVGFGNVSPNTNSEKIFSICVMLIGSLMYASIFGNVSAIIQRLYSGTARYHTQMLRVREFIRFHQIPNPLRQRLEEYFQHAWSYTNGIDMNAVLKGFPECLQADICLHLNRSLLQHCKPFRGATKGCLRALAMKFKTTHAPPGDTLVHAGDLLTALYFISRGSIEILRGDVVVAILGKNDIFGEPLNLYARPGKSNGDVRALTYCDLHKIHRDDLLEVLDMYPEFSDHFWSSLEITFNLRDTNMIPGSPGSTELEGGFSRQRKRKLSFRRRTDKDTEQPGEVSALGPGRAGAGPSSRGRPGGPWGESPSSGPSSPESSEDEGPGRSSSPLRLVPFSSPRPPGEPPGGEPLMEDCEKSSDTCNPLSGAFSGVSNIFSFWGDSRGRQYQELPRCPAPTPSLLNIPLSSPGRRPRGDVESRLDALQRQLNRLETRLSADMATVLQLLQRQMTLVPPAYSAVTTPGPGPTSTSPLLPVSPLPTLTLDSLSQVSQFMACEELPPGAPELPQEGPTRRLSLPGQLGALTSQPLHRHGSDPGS

Target: Human HERG (Homo sapiens, UniProt Q12809)
Test: Human dofetilide binding assay
Conditions: read-out: IC50 value of human dofetilide binding; membranes of human HERG transfected HEK293S cells, Cy3B tagged dofetilide derivative, fluorescence polarization

Question: Which IC50 does the source give for `CC(C)(C)Cc1nc2cc(S(=O)(=O)CC3CCN(c4ccncc4)CC3)ccc2n1CC1CC1` here?
Answer: 600 nM
